Values quoted from earlier work as cited in publication PMC9256694.

Chains of the proteins cited; added tags and fusions are not shown. Residues count along the entry.
UniProt P01589, 22-240, chain 1 of 3: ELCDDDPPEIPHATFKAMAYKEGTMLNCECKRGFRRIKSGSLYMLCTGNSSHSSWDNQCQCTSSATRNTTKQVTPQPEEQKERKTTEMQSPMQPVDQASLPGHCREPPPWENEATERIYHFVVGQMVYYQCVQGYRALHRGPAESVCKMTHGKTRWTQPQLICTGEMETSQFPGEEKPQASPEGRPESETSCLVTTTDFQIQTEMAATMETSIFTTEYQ
UniProt P60568, 21-153: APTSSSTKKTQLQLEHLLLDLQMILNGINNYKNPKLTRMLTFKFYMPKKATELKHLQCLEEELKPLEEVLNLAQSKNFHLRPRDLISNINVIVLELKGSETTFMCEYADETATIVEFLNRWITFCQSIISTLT

Molecular target: IL-2 receptor alpha/beta/gamma heterotrimer (Homo sapiens) (UniProt P01589)

For IL-2 (from UniProt P60568), the Kd is given as 0.01 nM.
